According to ChEMBL document CHEMBL1149659 (Bioorg Med Chem Lett, 2007):

Test system: 3T3-L1 (Mus musculus)
Test: Inhibition of [1-14C]sodium acetate uptake in mouse 3T3-L1 cells at 2 uM

**Q.** `COC(=O)CC/C(C)=C/Cc1c(O)c2c(c(C)c1OC)COC2=O` was tested. Which inhibition did it give?
**A.** 67%

**Q.** Which inhibition does the source give for `COc1c(C)c2c(c(OC)c1C/C=C(\C)CCC(=O)O)C(=O)OC2` here?
**A.** 14%
